In article PMC4283194 (Neuroimage, 2014):
“And” between values parts separate entries of the source, which are not always exact repeats. Equal values may be shown once.

Chains of the proteins cited; added tags and fusions are not shown.
UniProt P21554, whole entry: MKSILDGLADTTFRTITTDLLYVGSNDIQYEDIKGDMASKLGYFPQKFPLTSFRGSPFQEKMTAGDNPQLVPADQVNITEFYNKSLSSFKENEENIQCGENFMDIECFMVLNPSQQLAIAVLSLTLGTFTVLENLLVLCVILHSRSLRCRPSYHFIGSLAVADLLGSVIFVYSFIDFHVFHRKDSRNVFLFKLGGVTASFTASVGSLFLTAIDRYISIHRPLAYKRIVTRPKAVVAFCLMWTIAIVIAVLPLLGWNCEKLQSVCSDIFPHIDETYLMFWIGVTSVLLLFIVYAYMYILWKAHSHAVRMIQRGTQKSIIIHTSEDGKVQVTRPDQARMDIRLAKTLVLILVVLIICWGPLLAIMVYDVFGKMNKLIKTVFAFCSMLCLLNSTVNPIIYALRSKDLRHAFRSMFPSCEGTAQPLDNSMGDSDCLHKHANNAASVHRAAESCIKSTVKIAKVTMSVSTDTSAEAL

Biological target: CB1 receptor (Homo sapiens, UniProt P21554)
Experiment: [11C]MePPEP PET, VT by reversible three-compartment model with variable blood volume (4kbv)
Assay type: in vivo
Set-up: assess the stability of CB1-receptor quantification in humans in vivo; from tissue; host or cells: living human brain (healthy volunteers), in vivo PET; VT median: unit not given beside the values
Protocol: Continuous and intermittent blood samples were collected to allow the subsequent generation of metabolite-corrected arterial plasma time–activity curves (TACs) ([Hammers et al., 2008]). During the first 15 min blood was withdrawn continuously at a rate of 300 ml/h and radioactivity measured in a BGO detection system ([Jones et al., 1994]). To quantify plasma and whole blood radioactivity, as well as to allow quantification of the parent fraction of the radiotracer, intermittent discrete (10 ml) samples were taken with heparinised syringes before the scan (baseline) and at the following time points after scan start: 3, 5, 10, 15, 20, 30, and 50 min. At 75 min, a larger 17 ml sample was taken to allow quantification despite radioactivity decay. […] Continuous plasma input functions (IF) were derived by cross-calibration and combination of the continuous and discrete data, multiplication with the fitted plasma-over-blood ratio, and correction for parent radiotracer fraction, as described in detail in previous studies ([Hammers et al., 2007a], [Jones et al., 1994]).
K1 and k2 were calculated as for the 2kbv compartmental model described above; in addition, two additional rate constants were estimated to describe transfer relating to the third compartment: k3, which describes the transfer from the free and non-specifically bound compartment to the specifically bound (third) compartment; and k4, which describes the opposite transfer ([Cunningham et al., 1991], [Huang et al., 1980]). Again, a variable blood volume term was also computed. According to compartmental model equations ([Gunn et al., 2001], [Watabe et al., 2006]):(2) VT=K1/k21+k3/k4.

COc1cccc([C@H]2C[C@@H](N[C@H](C)c3ccccc3)C(=O)N2c2ccc(C(F)(F)F)cc2)c1 [[^11C]MePPEP, (3R,5R)-5-(3-methoxy-phenyl)-3-((R)-1-phenyl-ethylamino)-1-(4-trifluoro-methyl-phenyl)-pyrrolidin-2-one]
Ratio pallidum/pons of VT: 2.0 | Mean BS % CV of VT, mean (SD) across regions (8 ROIs): 86.8 (24.6) % and 86.8 ± 24.6% | Median % diff (test–retest) of VT, mean (SD) across regions (8 ROIs): 65.1 (27.1) % and 65.1 ± 27.1% | ICC of VT (ACG): 0.23 | Mean BS % CV of VT (ACG): 81.4% | Median % diff (test–retest) of VT (ACG): 53.7% | Mean BS % CV of VT (Accumbens): 131.7% | Median % diff (test–retest) of VT (Accumbens): 122.1% | Mean BS % CV of VT (Caudate): 69.9% | Median % diff (test–retest) of VT (Caudate): 68.5% | Mean BS % CV of VT (Hippocampus): 81.1% | Median % diff (test–retest) of VT (Hippocampus): 72.8% | ICC of VT (IFG): 0.13 | Mean BS % CV of VT (IFG): 51.9% | Median % diff (test–retest) of VT (IFG): 61.1% | VT median (IFG): 8.9 | Mean BS % CV of VT (Pallidum): 111.3% | Median % diff (test–retest) of VT (Pallidum): 69.7% | ICC of VT (Pons): 0.50 | Mean BS % CV of VT (Pons): 79.0% | Median % diff (test–retest) of VT (Pons): 40.3% | ICC of VT (Thalamus): 0.49 | Mean BS % CV of VT (Thalamus): 87.9% | Median % diff (test–retest) of VT (Thalamus): 32.7%
